Measurements from ChEMBL document CHEMBL6120977, “Structure-Affinity-Pharmacokinetics Relationships of Novel 18F-Labeled 1,4-Diazepane Derivatives for Orexin 1 Receptor Imaging” (J Med Chem, 2024).
pKi: −log10 of the molar value.

By UniProt entry, the sequences of proteins in these tests, tags left out.
UniProt O43613, whole entry: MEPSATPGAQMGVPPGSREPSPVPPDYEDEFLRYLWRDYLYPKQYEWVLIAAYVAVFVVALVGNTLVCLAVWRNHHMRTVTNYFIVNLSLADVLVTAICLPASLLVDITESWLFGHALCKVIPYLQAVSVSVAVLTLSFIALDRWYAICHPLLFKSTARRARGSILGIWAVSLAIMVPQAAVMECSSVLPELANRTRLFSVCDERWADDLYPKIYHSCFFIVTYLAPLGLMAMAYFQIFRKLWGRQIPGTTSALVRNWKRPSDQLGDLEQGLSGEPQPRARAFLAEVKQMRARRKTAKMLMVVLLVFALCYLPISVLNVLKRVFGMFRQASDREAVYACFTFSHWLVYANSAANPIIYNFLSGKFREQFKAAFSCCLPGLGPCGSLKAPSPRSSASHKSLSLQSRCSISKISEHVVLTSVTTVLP

Target: Orexin/Hypocretin receptor type 1 (Homo sapiens, UniProt O43613)
Assay: Displacement of […]5IBOM from OX1R (unknown origin) transfected in CHO cells assessed as inhibition constant incubated for 1.5 hrs by automated gamma-counter analysis
Assay type: cell-based

pKi: 8.57
SMILES: CNC(=O)[C@@H](c1ccccc1)N1CCc2cc(OC)c(OC)cc2[C@@H]1CCc1ccc(C(F)(F)F)cc1 [ALMOREXANT]
